# “And” between values parts separate entries of the source, which are not always exact repeats. Equal entries are not always repeated. This is a selection; strong and weak results do not stand in their true shares. Records with an inconclusive call do not appear. The source made the active and inactive calls. The call rests on the fitted dose curve; in most records, active means well fitted cell-killing curve with a large enough effect in the repeat runs; inconclusive means weak or mixed curves, or effect the other way; inactive means flat fitted curve, though single readings scatter.
# Assay: cAMP Responsive Elements (CRE) small molecule antagonists, cell-based qHTS assay: qHTS cell viability counter screen (AID 2060913); further: nearly all actives have a fitted effect of over 40% in size
# Conditions: CRE-bla HEK293T viability, CellTiter-Glo luminescence, 5 h; at 42.5 µM (top of the series)
# Text: U.S. Tox21 Program National Center for Advancing Translational Sciences [NCATS] Division of Preclinical Innovation [DPI] U.S. Environmental Protection Agency [EPA] National Institutes of Environmental Health Sciences [NIEHS] National Toxicology Program [NTP] U.S. Food and Drug Administration [FDA] Tox21 Assay Overview: CREB (cyclic-AMP Responsive Element Binding Protein) is a cellular transcription factor. It binds to certain DNA sequences called cAMP Responsive Elements (CRE) and regulates the transcription of the genes. […] This cell line can be used to find agonists/antagonists of the cyclic AMP signaling pathway. The activation of the report gene under culture conditions can be detected by fluorescence intensity. This cell line has been used to screen the Tox21 10K compound library to identify agonists that induce oxidative stress. The cytotoxicity of the Tox21 compound library against the CRE-bla cell line was tested in parallel by measuring the cell viability using CellTiter-Glo assay (Promega, Madison, WI) in the same wells.
# Tox21 Assay Protocol Summary: CRE-bla Hek 293T cells were suspended in assay medium (DMEM containing 10% dialyzed FBS, 0.1 mM NEAA, 1 mM sodium pyruvate and 25 mM HEPES) and dispensed at 2,000 cells/4 uL /well into 1536-well black wall/clear bottom plates using a Multidrop Combi (ThermoFisher Scientific, Waltham, MA) dispenser. After the assay plates were incubated at 37 C/5% CO2 for 18 hrs, 23 nL of compounds dissolved in DMSO, positive controls or DMSO only was transferred to the assay plate by a pintool workstation (Kalypsys, San Diego, CA), followed by addition of 1 uL of 1.25uM NKH477 (0.25 uM as final concentration) in assay medium using a Flying Reagent Dispenser (Aurora Discovery, San Diego, CA). The plates were incubated at 37 C and 5% CO2 for 3 hrs. Then 1 uL of LiveBLAzer B/G FRET substrate (Invitrogen, Carlsbad, CA) was added to each well using Bioraptr Flying Reagent Dispenser (FRD, Aurora Discovery, San Diego, CA). The plates were incubated at room temperature for 2 h, then fluorescence intensities were measured using an Envision plate reader (PerkinElmer, Shelton, CT) at Excitation 405nm, Emission 460nm and 530nm. The % activity was determined from the ratio of 460nm/530nm. For cell viability readout that measures cytotoxicity, 4 uL /well of CellTiter-Glo reagent was added into the assay plates using Bioraptr FRD. After 30 min incubation at room temperature, the luminescence intensity in the assay plates was measured using a ViewLux (PerkinElmer, Shelton, CT) plate reader.
# On the % scale 0 is the no-effect control and ±100 the full control effect.
row,Structure (SMILES),"viability change, negative = cytotoxic"
1,OCCSCCO,inactive: 2.14%

# Same assay, conditions: CRE-bla HEK293T viability, CellTiter-Glo luminescence, 5 h; at 92.4 µM (top of the series)
row,Structure (SMILES),"viability change, negative = cytotoxic"
1,OCCSCCO,inactive: -12.7%

# Same assay, conditions: CRE-bla HEK293T viability, CellTiter-Glo luminescence, 5 h; at 92.4 µM (top of the series) unless noted
row,Structure (SMILES),"viability change, negative = cytotoxic"
1,N=C(N)N[N+](=O)[O-],inactive: 7.2%
2,Cc1cccc([N+](=O)[O-])c1[N+](=O)[O-],inactive: -6.6% [at 42.5 µM]
3,O=[N+]([O-])[O-].[NH4+],inactive: -0.371% and inactive: -1.62%
4,O=[N+]([O-])c1cccc([N+](=O)[O-])c1,inactive: 0.408%
5,[NH4+].[O-][Cl+3]([O-])([O-])[O-],inactive: -0.845% and inactive: 0.338%
6,COc1ccc([N+](=O)[O-])cc1[N+](=O)[O-],inactive: 1.72%
7,CCN(CC)CCCl,inactive: 0.195%
8,N#CBr,inactive: 11.4%
9,CCOP(=O)(CC)OCC,inactive: 9.13%
10,COP(C)(=O)OC,inactive: -3.93% and inactive: -2.12%
11,Cc1ccc([N+](=O)[O-])cc1[N+](=O)[O-],inactive: -12.7% and inactive: -3.19%
12,O=[N+]([O-])OCC(CO[N+](=O)[O-])(CO[N+](=O)[O-])CO[N+](=O)[O-],inactive: 4.84%
13,CC(C)OP(C)(=O)OC(C)C,inactive: 1.29% and inactive: -0.0428%
14,Cc1c([N+](=O)[O-])cccc1[N+](=O)[O-],inactive: -4.51% and inactive: 2.11%
15,CN(C)CCCl,inactive: 4.3%
16,CC(C)N(CCO)C(C)C,inactive: 2.19%
17,C/C1=C2N=C(/C=C3N=C(/C(C)=C4\[N-][C@@](C)([C@@H]5N=C1[C@](C)(CCC(=O)NC[C@@H](C)OP(=O)([O-])O[C@H]1[C@@H](O)[C@@H](n6cnc7cc(C)c(C)cc76)O[C@@H]1CO)[C@H]5CC(N)=O)[C@@](C)(CC(N)=O)[C@@H]4CCC(N)=O)[C@@](C)(CC(N)=O)[C@@H]\3CCC(N)=O)C(C)(C)[C@@H]/2CCC(N)=O.[C-]#N.[Co+3],inactive: 1.7% [at 42.5 µM]
18,CCOP(=O)(CC)Oc1ccc([N+](=O)[O-])cc1 (configuration not stated),inactive: -14.3% [at 42.5 µM]
19,Cc1ccc([N+](=O)[O-])c([N+](=O)[O-])c1,inactive: 0.61% and inactive: -0.0987%
20,CP(=O)(O)OCCC[Si](O)(O)O,inactive: 0.105%

# Source: PubChem BioAssay (Tox21)
